Patent WO2016073157A1 (dated 2016)

T1: His-tagged human Ang2 (hAng2his8) (human, UniProt O15123 19-496, limits assumed)
T1 construct: neither is tied to this construct; not shown: His tag (his8)
T1 sequence (looked up): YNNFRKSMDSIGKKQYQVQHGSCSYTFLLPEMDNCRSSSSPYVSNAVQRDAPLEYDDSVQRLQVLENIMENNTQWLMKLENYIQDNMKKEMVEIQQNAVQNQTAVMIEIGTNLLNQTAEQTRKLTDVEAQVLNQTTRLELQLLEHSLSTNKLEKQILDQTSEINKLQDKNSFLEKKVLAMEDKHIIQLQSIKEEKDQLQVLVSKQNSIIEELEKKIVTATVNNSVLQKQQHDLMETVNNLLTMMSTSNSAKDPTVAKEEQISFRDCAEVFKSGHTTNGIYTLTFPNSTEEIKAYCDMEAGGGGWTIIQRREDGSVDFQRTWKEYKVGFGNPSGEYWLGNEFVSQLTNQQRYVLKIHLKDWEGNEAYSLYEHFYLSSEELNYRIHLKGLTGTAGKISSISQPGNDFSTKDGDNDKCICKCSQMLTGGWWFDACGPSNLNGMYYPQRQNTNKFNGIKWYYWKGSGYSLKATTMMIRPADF


What was measured:
hVEGF109 [1] = target: T2, hVEGF109 (human, UniProt P15692-4 34-135, limits assumed); test: phage competition ELISA (phage IC50), hVEGF109, VEGF inferred
T2 construct: Numbers count on the mature 165-amino acid VEGF, not on the precursor; also called human VEGF (hVEGF 109)

[2] = target: T1, His-tagged human Ang2 (hAng2his8); test: phage competition ELISA (phage IC50), hAng2his8, Ang2 inferred
hVEGF109 [3] = target: T2, hVEGF109; test: phage competition ELISA (phage IC50), hVEGF109 in solution and on the plate, VEGF inferred
[4] = target: T1, His-tagged human Ang2 (hAng2his8); test: phage competition ELISA (phage IC50), hAng2his8 in solution and on the plate, Ang2 inferred

Row | Binder | fold change of phage IC50 against 5A12 4.2 (hVEGF109 [1]) [fold] | fold change of phage IC50 against 5A12 4.2 [2] [fold] | IC50 (hVEGF109 [3]) [nM] | IC50 [4] [nM]
1 | 5A12 4.2 HC.T52D (Fab, V domains shown) VH: EVQLVESGGGLVQPGGSLRLSCAASGFTISDYWIHWVRQAPGKGLEWVAGIDPAGGYTYYADSVKGRFTISADTSKNTAYLQMNSLRAEDTAVYYCARFVFFLPYAMDYWGQGTLVTVSS VL: DIQMTQSPSSLSASVGDRVTITCRASQFLSSFGVAWYQQKPGKAPKLLIYGASSLYSGVPSRFSGSGSGTDFTLTISSLQPEDFATYYCQQGLLSPLTFGQGTKVEIK | 0.05 | 86.2 | 39.5 | 0.08
2 | 5A12 4.2 HC.G54E (Fab, V domains shown) VH: EVQLVESGGGLVQPGGSLRLSCAASGFTISDYWIHWVRQAPGKGLEWVAGITPAEGYTYYADSVKGRFTISADTSKNTAYLQMNSLRAEDTAVYYCARFVFFLPYAMDYWGQGTLVTVSS VL: DIQMTQSPSSLSASVGDRVTITCRASQFLSSFGVAWYQQKPGKAPKLLIYGASSLYSGVPSRFSGSGSGTDFTLTISSLQPEDFATYYCQQGLLSPLTFGQGTKVEIK | 0.08 | 16.1 | 24.2 | 0.43
3 | 5A12 4.2 HC.Y100aW (Fab, V domains shown) VH: EVQLVESGGGLVQPGGSLRLSCAASGFTISDYWIHWVRQAPGKGLEWVAGITPAGGYTYYADSVKGRFTISADTSKNTAYLQMNSLRAEDTAVYYCARFVFFLPWAMDYWGQGTLVTVSS VL: DIQMTQSPSSLSASVGDRVTITCRASQFLSSFGVAWYQQKPGKAPKLLIYGASSLYSGVPSRFSGSGSGTDFTLTISSLQPEDFATYYCQQGLLSPLTFGQGTKVEIK | 9.38 | 0.06 | 0.21 | 115
4 | 5A12 4.2 HC.A100bT (Fab, V domains shown) VH: EVQLVESGGGLVQPGGSLRLSCAASGFTISDYWIHWVRQAPGKGLEWVAGITPAGGYTYYADSVKGRFTISADTSKNTAYLQMNSLRAEDTAVYYCARFVFFLPYTMDYWGQGTLVTVSS VL: DIQMTQSPSSLSASVGDRVTITCRASQFLSSFGVAWYQQKPGKAPKLLIYGASSLYSGVPSRFSGSGSGTDFTLTISSLQPEDFATYYCQQGLLSPLTFGQGTKVEIK | 4.02 | 0.1 | 0.49 | 69
5 | 5A12 4.2 HC.A100bV (Fab, V domains shown) VH: EVQLVESGGGLVQPGGSLRLSCAASGFTISDYWIHWVRQAPGKGLEWVAGITPAGGYTYYADSVKGRFTISADTSKNTAYLQMNSLRAEDTAVYYCARFVFFLPYVMDYWGQGTLVTVSS VL: DIQMTQSPSSLSASVGDRVTITCRASQFLSSFGVAWYQQKPGKAPKLLIYGASSLYSGVPSRFSGSGSGTDFTLTISSLQPEDFATYYCQQGLLSPLTFGQGTKVEIK | 19.7 | 0.05 | 0.1 | 137
6 | 5A12 4.2 HC.A100bS (Fab, V domains shown) VH: EVQLVESGGGLVQPGGSLRLSCAASGFTISDYWIHWVRQAPGKGLEWVAGITPAGGYTYYADSVKGRFTISADTSKNTAYLQMNSLRAEDTAVYYCARFVFFLPYSMDYWGQGTLVTVSS VL: DIQMTQSPSSLSASVGDRVTITCRASQFLSSFGVAWYQQKPGKAPKLLIYGASSLYSGVPSRFSGSGSGTDFTLTISSLQPEDFATYYCQQGLLSPLTFGQGTKVEIK | 1.64 | 0.1 | 1.2 | 71.4
